# Ab-14 heavy chain CDR variants: yeast mating affinities

Target peptide (SARS-CoV-2 spike, HR2 region): PDVDLGDISGINAS

Each scFv is VH, a 15-residue (Gly4Ser)3 linker, VL, as in the parent Ab-14, and differs from it in the CDRs of the heavy chain only.
VH: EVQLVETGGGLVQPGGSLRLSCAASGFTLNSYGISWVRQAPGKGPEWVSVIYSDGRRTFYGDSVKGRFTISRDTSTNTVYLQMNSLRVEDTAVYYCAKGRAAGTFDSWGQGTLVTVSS
VL: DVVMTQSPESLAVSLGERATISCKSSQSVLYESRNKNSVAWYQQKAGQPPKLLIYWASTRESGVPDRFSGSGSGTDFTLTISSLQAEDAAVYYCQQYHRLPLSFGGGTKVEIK

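Phage display of a naive human antibody library on the peptide gave the parent. Designed CDR sequences, proposed from the first random library and measured here. Their group label is 14H_En_Gibbs (En: ensemble of fine-tuned language models; Gibbs: Gibbs sampling). AlphaSeq pools MATa yeast showing the antibodies with MATalpha yeast showing the peptide. After mating in shaken culture at 30 °C for 16 h, diploids were selected and their barcode pairs sequenced. Scores were corrected for input abundance and mapped to Kd with protein pairs of known affinity run in the same pool. Mating was done six times.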

The parent's heavy chain CDRs are GFTLNSYGIS, VIYSDGRRTFYGDSVK, GRAAGTFDS; each variant's own CDRs replace them letter for letter.
Values are log10 of the apparent Kd in nM; lower means stronger binding.
A mean of the replicates is given; it leaves out those without a signal.
An entry "n.d." has no value in the source: the pair was not observed among the diploids in that replicate. This suggests poor binding but is not conclusive.
The parent sequence was in this pool as ten entries: three were never detected, three once, and four in most replicates, with averages from 0.34 to 2.37.
Background: pairings of all heavy chain designs with three empty control strains gave a value in 1% of cases (median 2.08, 5th percentile 0.84). Values in that range, when seen in few replicates, are hard to tell from nonspecific mating. The control count says in how many pairings with the empty strains this scFv gave a signal, with their mean in brackets.
A sequence measured in both rounds can read differently, since the two assays cover different ranges.
The authors' rule: three or more of the six replicates give a measured affinity, fewer mean a poor binder.

| CDR-H1 | CDR-H2 | CDR-H3 | log10 Kd (nM) by replicate | log10 Kd (nM), mean | signal with controls |
|---|---|---|---|---|---|
| GFDLQEYGIS | VIYADGARKSYTNSVK | GVWGTTMDV | n.d. / n.d. / n.d. / n.d. / 2.93 / n.d. | 2.93 | 0 of 18 |
| GKHLDEFGIS | VIYADGLRMHYANSVK | GEMAGTFTT | n.d. / n.d. / n.d. / n.d. / n.d. / n.d. | n.d. | 0 of 18 |
| GFEIQEYGIS | VIYADGRRTAYAESVK | GTLAGTLST | 0.06 / 0.69 / -0.24 / -0.84 / -0.46 / -0.21 | -0.17 | 0 of 18 |
| GFDLEEYGIS | VIYADGERVNYTEAVK | GEFSGVKMD | n.d. / n.d. / n.d. / n.d. / n.d. / n.d. | n.d. | 0 of 18 |
| GFDLEEYGIS | VIYADGIRMSYADNVK | GVYSGTDYV | 1.85 / n.d. / n.d. / n.d. / 1.78 / 1.81 | 1.81 | 0 of 18 |
| GFDINEYGIS | VIYADGFRLAYVQNVK | GEHAGSVEV | n.d. / n.d. / n.d. / n.d. / n.d. / n.d. | n.d. | 0 of 18 |
| GENLEEYGIS | VIYADGFRTQYAEKVK | GQQGGFFIK | n.d. / n.d. / n.d. / n.d. / 2.73 / n.d. | 2.73 | 0 of 18 |
| GFNLDEMGIS | VIYADGSRQVYADSVK | GHFGGNKIN | n.d. / n.d. / n.d. / n.d. / n.d. / n.d. | n.d. | 0 of 18 |
| GYSLNEFGIS | VIYADGLRVAYADDVK | GNIAGHFLS | n.d. / n.d. / n.d. / n.d. / n.d. / n.d. | n.d. | 0 of 18 |
| GFDLDEYGIS | VIYADGARKSYTNSVK | GVWGTTMYV | 1.65 / n.d. / 0.29 / 0.51 / 1.47 / 0.88 | 0.96 | 0 of 18 |
| GFDIQDYGIS | VIYADGSRTAYTNSVK | GVTGAFYGL | n.d. / n.d. / n.d. / n.d. / n.d. / n.d. | n.d. | 0 of 18 |
| GFDLNEYGVS | VIYADGIRTAYADSFK | GNVGVALFQ | n.d. / n.d. / n.d. / n.d. / n.d. / n.d. | n.d. | 1 of 18 (3.05) |
| GFDLEAYGIS | VIYADGVRTGYVNKVK | GDTGGMFDD | n.d. / n.d. / n.d. / 1.38 / 1.80 / n.d. | 1.59 | 1 of 18 (2.70) |
| GFDLNEYGVS | VIYADGIRTSYTDSVK | GKVVDLLMA | n.d. / n.d. / n.d. / n.d. / n.d. / n.d. | n.d. | 1 of 18 (1.88) |
| GEDLNEYGIS | VIYADGQRTAYDESVK | GKIAGSFFH | n.d. / n.d. / n.d. / 2.43 / n.d. / n.d. | 2.43 | 0 of 18 |
| GFDLEKYGIS | VIYADGYRSAYAQNVK | GGHAGGFHF | n.d. / n.d. / n.d. / n.d. / n.d. / n.d. | n.d. | 1 of 18 (2.12) |
| GFDLEEYGIS | VIYADGQRFAYAQEFK | GEAGGAFDL | n.d. / n.d. / n.d. / n.d. / n.d. / n.d. | n.d. | 0 of 18 |
| GFDLDNFGIS | VIYADGIRTQYQDSVK | GQNVFTFDV | n.d. / n.d. / n.d. / n.d. / n.d. / n.d. | n.d. | 0 of 18 |
| GFDLDEYGVS | VIYADGERKAYADKVK | GTHGGTRDI | n.d. / n.d. / n.d. / n.d. / n.d. / n.d. | n.d. | 0 of 18 |
| GFDLDEYGIS | VIYADGCRVSYANTVK | GLLGKLVVV | n.d. / n.d. / n.d. / n.d. / n.d. / n.d. | n.d. | 0 of 18 |
| GFNLDEYGIS | VIYADGARTAYTNKVK | GGNWMISVA | n.d. / n.d. / n.d. / n.d. / n.d. / n.d. | n.d. | 0 of 18 |
| GFDLGEYGIS | VIYADGSRKAYATSFK | GGSGYKDGV | n.d. / n.d. / n.d. / n.d. / n.d. / n.d. | n.d. | 0 of 18 |
| GYDLMEYGIS | VIYADGRRVYYIDDVK | GHVSGHFLL | n.d. / n.d. / n.d. / n.d. / n.d. / n.d. | n.d. | 1 of 18 (1.06) |
| GFDLNEYGVS | VIYADGMRRAYAANFK | GVTAGGLDI | n.d. / n.d. / n.d. / n.d. / n.d. / n.d. | n.d. | 1 of 18 (1.86) |
| GFDIMEYGIS | VIYADGMRQAYLNKVK | GNNGSSGLF | n.d. / n.d. / n.d. / n.d. / n.d. / n.d. | n.d. | 0 of 18 |
| GYDIEQYGIS | VIYADGIRTVYHDSVK | GHNGDTFYV | n.d. / n.d. / n.d. / n.d. / 4.36 / n.d. | 4.36 | 1 of 18 (2.35) |
| GFDLDEYGVS | VIYADGRRKKYADSVK | GTNGGTINA | n.d. / 1.92 / n.d. / n.d. / n.d. / n.d. | 1.92 | 0 of 18 |
| GFSLDEMGIS | VIYADGQRTAYQDNVK | SVNGVVVFL | n.d. / n.d. / n.d. / n.d. / n.d. / n.d. | n.d. | 0 of 18 |
| GFQLNEYGIS | VIYADGMRSEYQDSVK | GSNNSSFKV | n.d. / n.d. / n.d. / n.d. / n.d. / n.d. | n.d. | 0 of 18 |
| GEDLDEYGIS | VIYADGMRQYYANNVK | GDINDVDDL | n.d. / n.d. / n.d. / n.d. / n.d. / n.d. | n.d. | 0 of 18 |
| GYDIQDYGIS | VIYADGVRTVYHDSVK | GQLAGSFIT | 1.13 / 0.82 / 0.36 / 0.39 / 1.14 / 0.10 | 0.66 | 0 of 18 |
| GFDVDEYGIS | VIYADGKRSMYANKVK | GGIGGMFFQ | n.d. / n.d. / n.d. / n.d. / n.d. / n.d. | n.d. | 0 of 18 |
| GFGLMEYGIS | VIYADGMRTSYANSFK | GALAGTFDE | 0.60 / 1.10 / 0.68 / 0.78 / 1.52 / 1.15 | 0.97 | 0 of 18 |

Picked from the list: the 2 lowest averages where every replicate gave a value.

| CDR-H1 | CDR-H2 | CDR-H3 | log10 Kd (nM) by replicate | log10 Kd (nM), mean | signal with controls |
|---|---|---|---|---|---|
| GFEIQEYGIS | VIYADGRRTAYAESVK | GTLAGTLST | 0.06 / 0.69 / -0.24 / -0.84 / -0.46 / -0.21 | -0.17 | 0 of 18 |
| GYDIQDYGIS | VIYADGVRTVYHDSVK | GQLAGSFIT | 1.13 / 0.82 / 0.36 / 0.39 / 1.14 / 0.10 | 0.66 | 0 of 18 |

Values reported by Li et al. 2023, doi:10.1038/s41467-023-39022-2 (FLAb copy).